# Measurements published in patent publication US9707233B2, “Heterocyclylamines as PI3K inhibitors” (Incyte Corporation, priority 2011, dated 2017).
# Protein sequences, listed by entry. Tags and fused reporters are not part of them. Lines headed by an entry give the natural chain unless they say otherwise; changes in a name come on top.
# UniProt O00329: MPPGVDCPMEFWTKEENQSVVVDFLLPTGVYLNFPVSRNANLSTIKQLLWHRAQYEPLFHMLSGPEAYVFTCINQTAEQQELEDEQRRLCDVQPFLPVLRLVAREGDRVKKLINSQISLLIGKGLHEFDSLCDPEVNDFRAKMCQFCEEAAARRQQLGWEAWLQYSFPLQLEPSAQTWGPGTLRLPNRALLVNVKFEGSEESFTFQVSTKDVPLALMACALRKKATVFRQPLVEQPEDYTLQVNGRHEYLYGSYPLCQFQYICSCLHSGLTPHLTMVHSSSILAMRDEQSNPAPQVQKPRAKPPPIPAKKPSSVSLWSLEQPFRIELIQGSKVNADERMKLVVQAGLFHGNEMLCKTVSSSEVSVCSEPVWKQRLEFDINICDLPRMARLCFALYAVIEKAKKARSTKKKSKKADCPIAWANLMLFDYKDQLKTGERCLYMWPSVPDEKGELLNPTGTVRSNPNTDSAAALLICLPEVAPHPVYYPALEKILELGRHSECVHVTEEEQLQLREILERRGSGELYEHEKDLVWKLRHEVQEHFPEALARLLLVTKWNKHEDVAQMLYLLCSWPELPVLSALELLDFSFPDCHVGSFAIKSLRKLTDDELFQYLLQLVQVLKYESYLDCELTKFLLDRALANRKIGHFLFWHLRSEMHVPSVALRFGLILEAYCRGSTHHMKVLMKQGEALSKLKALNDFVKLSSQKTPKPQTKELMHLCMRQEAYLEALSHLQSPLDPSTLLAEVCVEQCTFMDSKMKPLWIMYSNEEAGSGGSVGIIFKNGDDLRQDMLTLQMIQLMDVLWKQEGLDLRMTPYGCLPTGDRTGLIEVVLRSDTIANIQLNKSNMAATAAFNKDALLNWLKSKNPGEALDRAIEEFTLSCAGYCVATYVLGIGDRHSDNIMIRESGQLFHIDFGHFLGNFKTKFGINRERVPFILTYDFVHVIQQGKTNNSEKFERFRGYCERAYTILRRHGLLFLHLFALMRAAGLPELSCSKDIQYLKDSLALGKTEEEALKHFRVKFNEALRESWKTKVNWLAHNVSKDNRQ
# pIC50: −log10 of the molar value.
# Target: PI3Kδ (p110δ/p85α) (Homo sapiens (Human), UniProt O00329)
# Assay: PI3Kδ scintillation proximity assay (Example A3)
# Format: biochemical
# Conditions: 20 μM ATP, 20 μM PIP2, 4 nM PI3Kδ; read-out: PI3Kδ SPA IC50
# Description: [γ-^33P]ATP (10 mCi/mL) was purchased from Perkin-Elmer (Waltham, Mass.). Lipid kinase substrate, D-myo-Phosphatidylinositol 4,5-bisphosphate (PtdIns(4,5)P2)D (+)-sn-1,2-di-O-octanoylglyceryl, 3-O-phospho linked (PIP2), CAS 204858-53-7, was purchased from Echelon Biosciences (Salt Lake City, Utah). PI3Kδ (p110δ/p85α) was purchased from Millipore (Bedford, Mass.). ATP, MgCl2, DTT, EDTA, MOPS and CHAPS were purchased from Sigma-Aldrich (St. Louis, Mo.). Wheat Germ Agglutinin (WGA) YSi SPA Scintillation Beads was purchased from GE healthcare life sciences (Piscataway, N.J.).
# The kinase reaction was conducted in polystyrene 384-well matrix white plate from Thermo Fisher Scientific in a final volume of 25 μL. Inhibitors were first diluted serially in DMSO and added to the plate wells before the addition of other reaction components. The final concentration of DMSO in the assay was 0.5%. The PI3K assays were carried out at room temperature in 20 mM MOPS, pH 6.7, 10 mM MgCl2, 5 mM DTT and CHAPS 0.03%. Reactions were initiated by the addition of ATP, the final reaction mixture consisted of 20 μM PIP2, 20 μM ATP, 0.2 μCi [γ-^33P]ATP, 4 nM PI3Kδ. Reactions were incubated for 210 min and terminated by the addition of 40 μL SPA beads suspended in quench buffer: 150 mM potassium phosphate pH 8.0, 20% glycerol. 25 mM EDTA, 400 μM ATP. The final concentration of SPA beads was 1.0 mg/mL. After the plate sealing, plates were shaken overnight at room temperature and centrifuged at 1800 rpm for 10 minutes, the radioactivity of the product was determined by scintillation counting on Topcount (Perkin-Elmer). IC50 determination was performed by fitting the curve of percent control activity versus the log of the inhibitor concentration using the GraphPad Prism 3.0 software. IC50 data for the Examples is presented in Table 10 as determined by Assay A3. IC50 data for Examples 361 and 363 is shown in Table 10a as determined by Assay A2.
row,SMILES,pIC50
1,"COc1c(C(C)n2nc(C)c3c(N)ncnc32)cc(Cl)c(F)c1C1CN(C(C)C)C1 (racemic) [Example 13, 1-{1-[5-Chloro-4-fluoro-3-(1-isopropylazetidin-3-yl)-2-methoxyphenyl]ethyl}-3-methyl-1H-pyrazolo[3,4-d]pyrimidin-4-amine bis(trifluoroacetate)]",≥ 8.00
2,"CCOc1c(C(C)n2ccc(=O)c3c(N)ncnc32)cc(Cl)c(C)c1-c1ccc(C(=O)N(C)C)nc1 (racemic) [Example 36, 5-{3-[1-(4-Amino-5-oxopyrido[2,3-d]pyrimidin-8(5H)-yl)ethyl]-5-chloro-2-ethoxy-6-methylphenyl}-N,N-dimethylpyridine-2-carboxamide bis(trifluoroacetate)]",≥ 8.00
3,"COc1c(C(C)n2nc(C)c3c(N)ncnc32)cc(Cl)c(F)c1C1CN(C(C)C)C1 (single isomer, unassigned) [67 (1st peak), 1-{1-[5-Chloro-4-fluoro-3-(1-isopropylazetidin-3-yl)-2-methoxyphenyl]ethyl}-3-methyl-1H-pyrazolo[3,4-d]pyrimidin-4-amine]",≥ 8.00
4,"CCOC(=O)C(C)(C)N1CC(c2c(C#N)c(Cl)cc(C(C)n3nc(C)c4c(N)ncnc43)c2OCC)C1 (single isomer, unassigned) [Example 238, Ethyl 2-(3-{3-[1-(4-amino-3-methyl-1H-pyrazolo[3,4-d]pyrimidin-1-yl)ethyl]-5-chloro-6-cyano-2-ethoxyphenyl}azetidin-1-yl)-2-methylpropanoate]",≥ 8.00
